# Measurements: BindingDB's records for doi:10.1016/j.chembiol.2007.10.011 (Vanderbilt University, 2007)
# Chains of the proteins cited; added tags and fusions are not shown.
# UniProt Q385E8, whole entry: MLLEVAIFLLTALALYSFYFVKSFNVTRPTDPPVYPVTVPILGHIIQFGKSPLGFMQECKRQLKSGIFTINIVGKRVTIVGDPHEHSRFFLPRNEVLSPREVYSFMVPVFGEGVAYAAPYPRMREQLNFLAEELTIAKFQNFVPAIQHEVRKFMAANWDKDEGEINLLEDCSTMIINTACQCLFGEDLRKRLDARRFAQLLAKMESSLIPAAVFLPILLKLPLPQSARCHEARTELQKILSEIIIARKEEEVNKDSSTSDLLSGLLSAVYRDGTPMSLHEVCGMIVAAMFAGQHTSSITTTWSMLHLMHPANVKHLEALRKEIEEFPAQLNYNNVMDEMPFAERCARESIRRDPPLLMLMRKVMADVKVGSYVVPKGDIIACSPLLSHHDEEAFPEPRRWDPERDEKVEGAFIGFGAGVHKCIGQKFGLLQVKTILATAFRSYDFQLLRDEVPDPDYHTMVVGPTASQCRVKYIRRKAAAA
# Molecular target: Lanosterol 14-alpha-demethylase (Trypanosoma brucei brucei (strain 927/4 GUTat10.1), UniProt Q385E8)
# Test: Inhibition Assay
# Details: pH 6
compound,measurement,value
OC(Cn1cncn1)(Cn1cncn1)c1ccc(F)cc1F [Fungata],Kd,340 nM
